Test results: US20240002952A1, “METHOD FOR IN VITRO DIAGNOSIS OF MUCOSITIS IN CANCER PATIENTS UNDERGOING ANTITUMOR THERAPY” (ISTITUTI FISIOTERAPICI OSPITALIERI, priority 2020, published 2024)

Legend:
[1] = tested on: Primary epidermal keratinocytes (HEKa)
[2] = tested on: Primary gingival keratinocytes

Substance: cetuximab
- CC50 Value Primary epidermal keratinocytes (HEKa) [1]: Not calculable
- CC50 [2]: 12 µM
